Molecular target: Peroxisome proliferator-activated receptor gamma (Mus musculus) (UniProt P37238)
Experiment: Inverse agonist activity at PPARgamma in NMRI-nu/nu mouse assessed as fold reduction in Fabp4 mRNA expression in adipose tissue at 100 mg/kg for 3 days and measured 15 hrs last dose by qPCR analysis
Format: organism-based
Conditions: filed as inverse agonist, time 3.0 day

Protein sequences, listed by entry. Tags and fused reporters are not part of them.
UniProt P37238, whole entry: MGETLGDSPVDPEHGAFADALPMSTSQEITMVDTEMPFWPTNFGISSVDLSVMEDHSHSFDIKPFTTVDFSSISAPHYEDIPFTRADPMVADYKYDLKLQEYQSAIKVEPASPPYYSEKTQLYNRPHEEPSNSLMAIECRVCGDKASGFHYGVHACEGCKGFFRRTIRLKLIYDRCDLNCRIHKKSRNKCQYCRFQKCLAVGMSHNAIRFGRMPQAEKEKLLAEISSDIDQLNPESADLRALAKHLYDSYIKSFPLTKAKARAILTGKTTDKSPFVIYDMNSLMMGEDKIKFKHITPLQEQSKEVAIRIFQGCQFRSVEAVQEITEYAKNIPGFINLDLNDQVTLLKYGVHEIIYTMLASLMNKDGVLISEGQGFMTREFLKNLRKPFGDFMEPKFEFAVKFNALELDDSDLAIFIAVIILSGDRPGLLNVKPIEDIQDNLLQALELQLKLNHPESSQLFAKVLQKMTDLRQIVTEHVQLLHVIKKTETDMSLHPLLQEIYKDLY

Row | Structure (SMILES) | fold change (FC)
1 | CC(C)(O)c1ccc(NC(=O)c2cc(C(=O)NCc3ccc(F)c(F)c3)c(F)cc2Cl)cc1 | 2
2 | Cc1cc(N2CCOCC2)cnc1NC(=O)c1cc(C(=O)NCc2ccc(F)c(F)c2)c(F)cc1Cl | 2
3 | Cc1cc(OC(F)F)ccc1NC(=O)c1cc(C(=O)NCc2ccc(F)cc2)c(F)cc1Cl | 2

Source: ChEMBL document CHEMBL5236643, “Discovery and characterization of orally bioavailable 4-chloro-6-fluoroisophthalamides as covalent PPARG inverse-agonists” (Bioorg Med Chem, 2023)
